Laboratory results from patent US6683105B2 (priority 1997, dated 2004).

By UniProt entry, the sequences of proteins in these tests, tags left out. Residues count along the entry.
UniProt P06276, 29-602: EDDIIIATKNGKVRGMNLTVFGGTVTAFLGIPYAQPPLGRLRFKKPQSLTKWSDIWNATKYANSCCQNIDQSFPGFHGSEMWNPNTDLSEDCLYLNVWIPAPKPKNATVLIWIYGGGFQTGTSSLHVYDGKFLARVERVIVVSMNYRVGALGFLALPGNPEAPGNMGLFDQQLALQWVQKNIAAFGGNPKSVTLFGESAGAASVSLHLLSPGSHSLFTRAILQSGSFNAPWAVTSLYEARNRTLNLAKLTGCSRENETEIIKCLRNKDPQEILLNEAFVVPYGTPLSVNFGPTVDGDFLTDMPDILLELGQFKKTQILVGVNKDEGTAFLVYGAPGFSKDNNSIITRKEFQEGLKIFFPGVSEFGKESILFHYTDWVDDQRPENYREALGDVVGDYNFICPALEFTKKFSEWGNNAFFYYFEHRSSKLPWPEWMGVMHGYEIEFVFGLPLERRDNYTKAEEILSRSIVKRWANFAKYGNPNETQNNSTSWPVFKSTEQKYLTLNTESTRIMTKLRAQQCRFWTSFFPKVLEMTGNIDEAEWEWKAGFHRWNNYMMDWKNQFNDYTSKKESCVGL

Molecular target: T1, human plasma BChE (Homo sapiens, UniProt P06276)
T1 construct: human plasma BChE; from tissue; host or cells: human plasma
Assay: BChE inhibition, IC(50) by logit plot
Format: biochemical
Details: BChE compared with AChE
Method: The IC (50) values can be determined for such inhibitors using methods well known in the art. In such assay the pharmacological activity of each compound, as an IC (50), defined as the concentration, in nanomoles, required to inhibit 50% of the enzyme activity of AChE and BChE, is determined separately. For determination of IC (50) values, the enzyme activity of each concentration was expressed as a percent of that determined in the absence of each compound. This then was transformed into a logit format, where logit=In (% activity/[100-% activity]), and was plotted as a function of the log concentration of the compound. IC (50) values (i.e., logit=In (50/[100−5O]=0) were determined only from correlation coefficients (r^2) of less than −0.985 and when more than 50% inhibition was achieved from duplicate samples. The selectivity ratio is then determined by comparing the IC (50) values obtained for each compound with AChE to that for BChE.

Structure (SMILES) | selectivity of inhibitory action for BChE versus AChE
CNC(=O)Oc1ccc2c(c1)[C@]1(C)CCNC1N2C (stereo partly drawn) [Compound 8, N^1-norphysostigmine] | provide BChE selectivity
CNC(=O)Oc1ccc2c(c1)C1(C)CCN(Cc3ccccc3)C1N2C (stereo not drawn) [Compound 12, N^1-benzylnorphysostigmine] | provide BChE selectivity
CNC(=O)Oc1ccc2c(c1)C1(C)CCN(CCc3ccccc3)C1N2C (stereo not drawn) [Compound 16, N^1-phenethylnorphysostigmine] | provide BChE selectivity
